Literature values as cited in EP0719130B1, “COMPLEX CALCIUM AND FLUORIDE CONTAINING MOUTH RINSES, DENTIFRICES, AND CHEWABLE TABLETS” (AMERICAN DENTAL ASSOCIATION HEALTH FOUNDATION, priority 1993, dated 1995).

Conditions: buffer acid or salt

pK: 5.61
Compound: O=C(O)CCC(=O)O [succinic acid]
